Assay [1] concerns the target Hepatocyte growth factor receptor (Homo sapiens, UniProt P08581). As to the kind of experiment: Inhibition of cMet by radioactive filtration assay.
For assay [2], the target named is T1, Tyrosine-protein kinase ZAP-70 (Homo sapiens, UniProt P43403).
T1 sequence (P43403 whole entry): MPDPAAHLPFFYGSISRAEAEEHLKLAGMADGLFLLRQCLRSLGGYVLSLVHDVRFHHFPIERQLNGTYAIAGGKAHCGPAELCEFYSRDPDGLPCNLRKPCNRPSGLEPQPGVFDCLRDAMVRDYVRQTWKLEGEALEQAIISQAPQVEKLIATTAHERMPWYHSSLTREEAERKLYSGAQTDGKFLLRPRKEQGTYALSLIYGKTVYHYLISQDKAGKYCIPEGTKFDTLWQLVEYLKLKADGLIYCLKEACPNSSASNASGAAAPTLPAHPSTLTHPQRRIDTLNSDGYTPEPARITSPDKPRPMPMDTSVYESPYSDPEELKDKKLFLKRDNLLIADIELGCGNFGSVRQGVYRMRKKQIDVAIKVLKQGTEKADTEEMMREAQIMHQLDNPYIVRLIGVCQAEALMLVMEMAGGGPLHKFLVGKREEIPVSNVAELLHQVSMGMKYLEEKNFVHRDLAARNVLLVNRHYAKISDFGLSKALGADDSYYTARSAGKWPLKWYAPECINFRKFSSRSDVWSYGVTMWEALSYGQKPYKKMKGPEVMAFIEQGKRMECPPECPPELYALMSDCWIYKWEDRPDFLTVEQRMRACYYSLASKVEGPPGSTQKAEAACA
Briefly: Inhibition of Zap70 by radioactive filtration assay.

Chains of the proteins cited; added tags and fusions are not shown. Lines headed by an entry give the natural chain unless they say otherwise; changes in a name come on top.
UniProt P08581: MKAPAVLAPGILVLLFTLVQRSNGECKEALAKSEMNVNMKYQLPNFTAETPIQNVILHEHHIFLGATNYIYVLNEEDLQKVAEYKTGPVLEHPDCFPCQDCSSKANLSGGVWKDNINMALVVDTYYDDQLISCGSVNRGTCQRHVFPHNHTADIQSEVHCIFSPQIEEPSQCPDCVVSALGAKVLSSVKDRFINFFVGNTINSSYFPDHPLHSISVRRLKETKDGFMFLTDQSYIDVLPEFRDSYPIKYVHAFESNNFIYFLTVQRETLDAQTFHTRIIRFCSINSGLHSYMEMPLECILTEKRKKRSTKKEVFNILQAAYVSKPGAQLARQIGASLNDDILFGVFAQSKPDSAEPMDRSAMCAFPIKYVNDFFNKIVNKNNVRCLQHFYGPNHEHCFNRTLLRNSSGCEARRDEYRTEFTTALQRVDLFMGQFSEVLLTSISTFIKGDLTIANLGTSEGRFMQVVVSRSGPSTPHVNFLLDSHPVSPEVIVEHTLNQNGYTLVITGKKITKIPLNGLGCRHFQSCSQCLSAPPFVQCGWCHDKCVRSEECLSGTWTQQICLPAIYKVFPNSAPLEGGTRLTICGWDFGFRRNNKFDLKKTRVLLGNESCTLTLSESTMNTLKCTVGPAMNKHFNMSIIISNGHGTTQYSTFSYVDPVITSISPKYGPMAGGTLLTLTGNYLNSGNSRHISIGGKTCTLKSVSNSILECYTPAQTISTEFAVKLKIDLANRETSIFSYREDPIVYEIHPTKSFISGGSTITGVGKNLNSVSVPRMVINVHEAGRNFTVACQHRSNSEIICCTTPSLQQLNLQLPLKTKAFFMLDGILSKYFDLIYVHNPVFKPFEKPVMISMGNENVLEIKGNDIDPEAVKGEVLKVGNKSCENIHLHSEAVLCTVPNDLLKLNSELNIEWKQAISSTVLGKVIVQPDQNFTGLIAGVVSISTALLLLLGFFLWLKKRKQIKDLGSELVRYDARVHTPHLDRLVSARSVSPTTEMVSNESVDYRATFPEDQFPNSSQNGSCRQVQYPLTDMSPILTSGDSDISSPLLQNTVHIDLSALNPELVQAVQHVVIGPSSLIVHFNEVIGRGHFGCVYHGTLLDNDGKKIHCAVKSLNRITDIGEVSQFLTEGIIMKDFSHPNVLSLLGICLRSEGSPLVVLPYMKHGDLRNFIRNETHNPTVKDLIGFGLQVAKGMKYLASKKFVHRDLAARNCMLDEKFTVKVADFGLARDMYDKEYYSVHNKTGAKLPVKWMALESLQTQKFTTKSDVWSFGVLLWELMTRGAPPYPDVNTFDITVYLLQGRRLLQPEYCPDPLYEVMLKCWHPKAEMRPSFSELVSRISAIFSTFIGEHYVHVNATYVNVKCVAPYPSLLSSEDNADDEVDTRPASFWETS

Molecules are shown by their SMILES.

The IC50 is the point on the concentration scale where inhibition reaches its midpoint. `CNc1ncnc(-c2cccnc2Oc2cc(NC(=O)c3cccc(OC(F)(F)C(F)F)c3)ccc2C)n1`: the concentration for half-maximal inhibition (IC50) in assay [1] and in assay [2] was 25 µM in each case.

For the origin of these results see ChEMBL document CHEMBL1139197, “Synthesis, structural analysis, and SAR studies of triazine derivatives as potent, selective Tie-2 inhibitors” (Bioorg Med Chem Lett, 2007).
